Properties, as collected for the OPERA models

Values as listed in the OPERA 2.9 repository of K. Mansouri.

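The OPERA project collected these measurements from public sources as training and test data for property models. One number stands for a compound and property, with no spread given. Conditions of the individual experiments are not part of the data. Where a salt, mixture or single isomer is drawn, the source does not say that exactly this form was tested. Some upstream entries may be estimates or bounds without being marked so.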

Melting points are in °C.
Boiling points are in °C, nominally at 760 mmHg.
logP is the log10 of the octanol-water partition coefficient; higher is more lipophilic.
Solubility in water is on a log10 molar scale (set defined at 25 °C).
Vapor pressures (log10 mmHg) refer to near room temperature, 15 to 30 °C; higher is more volatile.
The Henry's law constant is on a log10 scale in atm·m3/mol (set defined at 25 °C); higher favours air over water.
fu is the fraction unbound in human plasma, from 0 to 1.
Clint is human hepatic intrinsic clearance in µL/min per million cells; 0 means that no clearance was seen.
Entries marked < or ≤ lay at or below the stated limit.
Cells with "n/a" have no entry in this list.

mp (°C),BP (°C),log Kow,log solubility (log10 mol/L),log VP (log10 mmHg),log Henry constant (log10 atm·m3/mol),plasma fu,hepatic Clint (µL/min/10^6 cells),SMILES,name
192.5,322,0.5,-1.944,-4.985,n/a,n/a,n/a,CS(=O)(=O)c1ccc(F)c(C(=O)O)c1,2-Fluoro-5-(methanesulfonyl)benzoic acid
n/a,n/a,n/a,-2.429,-7.001,-9.722,n/a,n/a,CCC(=O)C1C(=O)CC(C(=O)O)CC1=O (stereo unspecified),Prohexadione
n/a,n/a,1.9,n/a,-1.557,n/a,n/a,n/a,COC(=O)C(=O)c1ccccc1,"Benzeneacetic acid, .alpha.-oxo-, methyl ester"
198.7,n/a,4.4,-7.449,n/a,n/a,n/a,n/a,Cc1ccc(C(=O)OC[C@@H]2O[C@H](n3cc(C)c(=O)[nH]c3=O)C[C@H]2OC(=O)c2ccc(C)cc2)cc1,n/a
270,n/a,-3.3,n/a,n/a,n/a,n/a,n/a,CCn1c(O)c(/N=N/c2ccc(/N=N/c3cc(OCCO)c(/N=N/c4c(S(=O)(=O)[O-])cc5cc(S(=O)(=O)[O-])cc(O)c5c4O)cc3OCCO)c(S(=O)(=O)[O-])c2)c(C)c(C(N)=O)c1=O.[K+].[K+].[Na+],n/a
56.2,n/a,1.3,-2.522,n/a,n/a,n/a,n/a,CCCCCCCCCCCCCC(=O)N(C)CC(=O)O,"Glycine, N-methyl-N-(1-oxotetradecyl)-"
n/a,n/a,1.45,-2.574,n/a,n/a,n/a,n/a,O=CC1=C(Cl)/C(=C/O)CCC1,(3E)-2-Chloro-3-(hydroxymethylene)cyclohexene-1-carbaldehyde
n/a,n/a,2.6,-2.898,-7.476,n/a,n/a,n/a,CCCCCCCCCCCCCC[N+](C)(C)C.CCCCCCCCCCCCCC[N+](C)(C)C.O=C([O-])C(=O)[O-],"Bis(N,N,N-trimethyl-1-tetradecanaminium) ethanedioate"
330,n/a,-3.1,n/a,n/a,n/a,n/a,n/a,Nc1ccc(/N=N/c2ccc(NS(=O)(=O)c3ccc(/N=N/c4c(S(=O)(=O)[O-])cc5cc(S(=O)(=O)[O-])c(/N=N/c6ccc([N+](=O)[O-])cc6)c(N)c5c4O)cc3)cc2)c(N)c1.[Na+].[Na+],C.I. Acid Brown 210
n/a,n/a,1.5,-2.38,n/a,n/a,n/a,< 3,O=C(NCCN1CCOCC1)c1ccc(Cl)cc1,Moclobemide
244.7,n/a,n/a,-2.073,n/a,n/a,n/a,0,COc1cc(S(=O)(=O)[O-])c(C)cc1/N=N/c1c(O)ccc2cc(S(=O)(=O)[O-])ccc12.[Na+].[Na+],n/a
n/a,n/a,2.5,-2.199,-5.385,n/a,n/a,n/a,CCCCc1nc(C=O)c(Cl)[nH]1,2-Butyl-5-chloroimidazole-4-carbaldehyde
n/a,n/a,n/a,n/a,n/a,n/a,0.322,234,COc1cc(C=O)ccc1O,4-hydroxy-3-methoxybenzaldehyde
70,n/a,n/a,-6.82,n/a,n/a,n/a,n/a,Clc1ccc(Oc2ccc(Cl)cc2Cl)c(Cl)c1,"Bis(2,4-dichlorophenyl)ether"
n/a,n/a,2.4,-2.963,n/a,n/a,n/a,n/a,Oc1cn2c(n1)Nc1ccc(Cl)c(Cl)c1C2,Anagrelide
-5.1,n/a,3.27,-2.144,n/a,n/a,n/a,n/a,CCCCCCCCC(=O)N(C)C,"N,N-Dimethylnonamide"
60.5,357,4.3,-4.616,n/a,n/a,n/a,n/a,Nc1ccc(F)cc1-c1ccc(Cl)c(Cl)c1,"3',4'-Dichloro-5-fluoro-[1,1'-biphenyl]-2-amine"
124,n/a,n/a,-8.995,-6.482,n/a,n/a,n/a,CCCCC(CC)CNc1ccc(NCC(CC)CCCC)c2c1C(=O)c1c(O)ccc(O)c1C2=O (stereo unspecified),n/a
n/a,n/a,-1.6,n/a,-7.878,n/a,n/a,n/a,CCN(CCO)c1ccc(/N=N/c2sc3cc(OC)ccc3[n+]2C)cc1.[Cl-],n/a

3 of these entries, quoted again:

{"smiles": "Oc1cn2c(n1)Nc1ccc(Cl)c(Cl)c1C2", "name": "Anagrelide", "log Kow": "2.4", "log solubility (log10 mol/L)": "-2.963"}
{"smiles": "CCCCc1nc(C=O)c(Cl)[nH]1", "name": "2-Butyl-5-chloroimidazole-4-carbaldehyde", "log Kow": "2.5", "log solubility (log10 mol/L)": "-2.199", "log VP (log10 mmHg)": "-5.385"}
{"smiles": "O=CC1=C(Cl)/C(=C/O)CCC1", "name": "(3E)-2-Chloro-3-(hydroxymethylene)cyclohexene-1-carbaldehyde", "log Kow": "1.45", "log solubility (log10 mol/L)": "-2.574"}